# From article PMC9503518, “Antibacterial and Antifungal Properties of a Novel Antimicrobial Peptide GK-19 and Its Application in Skin and Soft Tissue Infections Induced by MRSA or Candida albicans” (Pharmaceutics, 2022)
# Tested on: MRSA
# Details: mouse, in vivo
# Protocol: The scalded mice models combined with SSTIs by MRSA or C. albicans were constructed. Fifty normal male Kunming mice (5–6 weeks old) weighing ~25 g were anesthetized by isoflurane using a small animal anesthesia machine (R640, RWD Life Science, China). After skin preparation and disinfection, a custom-made circular iron (diameter: 8 mm) (shown in Figure S4) was applied to both sides of the spine of the mice for 10 s at 300 °C, resulting in four scalded wounds. Mice were injected subcutaneously with 5 mg/kg meloxicam (Aladdin, Shanghai, China) for four days (once per day) after scalding for pain relief. Two days after scalding, the skin tissues of the scalded areas were removed carefully, and about 30 μL of 1 × 10^7 CFU/mL of MRSA or C. albicans was applied evenly onto the surfaces of the wounds. The mice were returned to the original feeding environment after the microbial fluid was completely absorbed (1.5–2 h), with two mice per cage. Corncob granules with SPF level were used as padding.
# Two days after microbe inoculating, the scalded wounds of each mouse were divided into four groups randomly. […] Photographs of the wound areas were taken every two days using an iPhone 11 and the wound areas were measured every two days using Image J software (152-win-java8, Bethesda, MD, USA). […] After culturing overnight, the colonies were counted using Image J software or human eyes. […]
smiles,measurement,value
"CCC[C@@H]1C[C@@H](C(=O)N[C@@H]([C@H]2O[C@H](SC)[C@H](O)[C@@H](O)[C@H]2O)[C@H](C)Cl)N(C)C1 [CDHC, clindamycin hydrochloride]",MRSA suppressed (inhibition rate) at day eight compared with saline solution groups,~ 95%

# Counter-ions that a name gives are not always drawn.
